What was measured:
[1] = system: Fc receptors of the human U937 monocyte/macrophage cell line; test: Fc receptor binding, competition with 125I-IgG; conditions: FIG. 10
[2] = system: uptake of E. coli HB101 by U937 cells; test: Opsonophagocytosis assay; type: cell-based, human; conditions: Table 36

**Q.** How did the “competition with 125I-IgG for binding to U937 cells (in words)” value [1] turn out when “human albumin-PMB: human serum albumin conjugated with PMB by SPDP chemistry, control conjugate” was run?
**A.** no competitive binding activity at concentrations up to 10^−6

**Q.** What about the “U937 Cells Which Contained One Or More E. coli” value ([2]; 7.75 μg/ml) of the same substance?
**A.** 5%

**Q.** What about the “U937 Cells Which Contained One Or More E. coli” value ([2]; 0.0155 mg/ml) of the same substance?
**A.** 2%

**Q.** And the “U937 Cells Which Contained One Or More E. coli” value ([2]; 0.031 mg/ml)?
**A.** 0%
